# Values of other authors, collected in patent publication US20090088466A1, “OPIOID RECEPTOR LIGANDS” (priority 2005, published 2009).
# Sequences of proteins named here, by UniProt entry; tags and fusion partners are left off. A change or cut given only in a name is not applied to a line headed by its entry.
# UniProt P41145: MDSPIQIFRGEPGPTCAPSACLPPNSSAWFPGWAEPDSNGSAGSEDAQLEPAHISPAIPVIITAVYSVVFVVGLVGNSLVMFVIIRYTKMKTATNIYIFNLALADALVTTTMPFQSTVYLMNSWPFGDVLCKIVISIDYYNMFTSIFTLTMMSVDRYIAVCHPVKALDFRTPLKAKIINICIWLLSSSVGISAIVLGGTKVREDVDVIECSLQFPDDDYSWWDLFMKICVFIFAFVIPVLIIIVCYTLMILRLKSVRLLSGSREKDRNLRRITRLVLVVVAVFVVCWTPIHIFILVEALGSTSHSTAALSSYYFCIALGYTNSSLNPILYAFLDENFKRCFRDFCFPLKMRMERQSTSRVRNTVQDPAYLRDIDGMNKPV
# Target: κ receptors (Homo sapiens, UniProt P41145)
# Details: cited from earlier work
compound,measurement,value
COC(=O)[C@@H]1C[C@H](OC(C)=O)C(=O)[C@H]2[C@@]1(C)CC[C@H]1C(=O)O[C@H](c3ccoc3)C[C@]21C [Salvinorin A],selectivity for κ receptors over μ and δ opioid receptors,very selective
